Assay results taken from ChEMBL document CHEMBL3098045 (Bioorg Med Chem, 2014).

By UniProt entry, the sequences of proteins in these tests, tags left out.
UniProt P14416, whole entry: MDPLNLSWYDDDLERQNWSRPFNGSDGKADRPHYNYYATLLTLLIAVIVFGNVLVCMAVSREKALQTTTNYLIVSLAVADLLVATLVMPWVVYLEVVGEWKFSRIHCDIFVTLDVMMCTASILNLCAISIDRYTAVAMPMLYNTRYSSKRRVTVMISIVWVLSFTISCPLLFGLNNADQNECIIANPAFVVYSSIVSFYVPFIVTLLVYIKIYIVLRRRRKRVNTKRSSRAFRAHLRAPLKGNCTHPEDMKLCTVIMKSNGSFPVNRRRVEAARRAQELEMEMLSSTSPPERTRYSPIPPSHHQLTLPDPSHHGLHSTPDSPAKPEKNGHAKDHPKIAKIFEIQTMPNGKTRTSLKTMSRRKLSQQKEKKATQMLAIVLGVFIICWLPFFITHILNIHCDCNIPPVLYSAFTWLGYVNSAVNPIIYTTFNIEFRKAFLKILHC

Target: D(2) dopamine receptor (Homo sapiens, UniProt P14416)
Assay: Agonist activity at human dopamine D2 receptor expressed in CHO cells assessed as inhibition of forskolin-induced cAMP production after 20 mins relative to dopamine

## Cl.Oc1cccc2c1C[C@H]1OCCN(CC3CC3)[C@@H]1C2
  Efficacy: 99%

## Oc1cccc2c1C[C@@H]1OCCN(CC3CC3)[C@H]1C2
  Efficacy: 90%
